In patent US7214771 (UNIVERSITY OF MEDICINE AND DENTISTRY OF NEW JERSEY, dated 2007):

Biological target: T1, RIα-associated zinc finger (RIAZ), in vitro-translated full length protein (human, UniProt Q9HBE1 1-687, [35S]methionine labeled)
T1 construct: Translated in vitro from RIAZ cDNA in pBluescript II SK(-); The cDNA was cloned from a human fetal brain library; also called in-vitro translated RIAZ protein
T1 sequence: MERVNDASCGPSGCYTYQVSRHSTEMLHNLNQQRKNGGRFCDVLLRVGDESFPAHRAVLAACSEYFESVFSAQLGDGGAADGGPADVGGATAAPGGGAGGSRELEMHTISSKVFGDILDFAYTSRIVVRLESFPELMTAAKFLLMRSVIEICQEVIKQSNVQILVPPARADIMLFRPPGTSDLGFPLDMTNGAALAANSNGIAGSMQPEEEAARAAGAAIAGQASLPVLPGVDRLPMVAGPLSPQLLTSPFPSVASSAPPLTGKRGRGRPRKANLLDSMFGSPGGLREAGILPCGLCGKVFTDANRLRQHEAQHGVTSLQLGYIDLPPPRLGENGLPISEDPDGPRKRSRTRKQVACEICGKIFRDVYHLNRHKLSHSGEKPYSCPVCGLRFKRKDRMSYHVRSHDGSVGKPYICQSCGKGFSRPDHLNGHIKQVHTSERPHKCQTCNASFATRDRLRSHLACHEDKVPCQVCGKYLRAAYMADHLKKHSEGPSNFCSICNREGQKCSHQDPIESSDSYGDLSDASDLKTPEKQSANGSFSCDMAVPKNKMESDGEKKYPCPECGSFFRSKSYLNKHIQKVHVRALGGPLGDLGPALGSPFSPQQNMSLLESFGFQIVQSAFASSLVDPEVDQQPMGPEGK
Test: GST pull down of [35S]methionine labeled RIAZ, SDS-PAGE and autoradiography

- binding result: no binding
B1: GST (control) (other, UniProt P08515 1-218, looked up)
chain: MSPILGYWKIKGLVQPTRLLLEYLEEKYEEHLYERDEGDKWRNKKFELGLEFPNLPYYIDGDVKLTQSMAIIRYIADKHNMLGGCPKERAEISMLEGAVLDIRYGVSRIAYSKDFETLKVDFLSKLPEMLKMFEDRLCHKTYLNGDHVTHPDFMLYDALDVVLYMDPMCLDAFPKLVCFKKRIEAIPQIDKYLKSSKYIAWPLQGWQATFGGGDHPPK
notes: Immobilized on glutathione resin as the negative control
